This assay addresses Adenosine receptor A2a (Homo sapiens, UniProt P29274). The assay is described as follows: Binding affinity to human A2A adenosine receptor expressed in CHO cells. The assay is classed as cell-based.

The Ki is the dissociation constant of the complex between target and ligand, obtained from inhibition or displacement. A lower Ki goes with a stronger hold on the target. On to `CCn1nnnc1[C@H]1O[C@@H](n2cnc3c(N)nc(N[C@H](CO)Cc4ccccc4)nc32)[C@H](O)[C@@H]1O`, for which the affinity, expressed as Ki, was 2.3 nM.

For the origin of these results see ChEMBL document CHEMBL1949672 (J Med Chem, 2012).
